We go through three molecules from patent US20210324005A1, “Beta-Arrestin Effectors and Compositions and Methods of Use Thereof” (Trevena, Inc., priority 2020, published 2021).

Chains of the proteins cited; added tags and fusions are not shown.
UniProt P25095, whole entry: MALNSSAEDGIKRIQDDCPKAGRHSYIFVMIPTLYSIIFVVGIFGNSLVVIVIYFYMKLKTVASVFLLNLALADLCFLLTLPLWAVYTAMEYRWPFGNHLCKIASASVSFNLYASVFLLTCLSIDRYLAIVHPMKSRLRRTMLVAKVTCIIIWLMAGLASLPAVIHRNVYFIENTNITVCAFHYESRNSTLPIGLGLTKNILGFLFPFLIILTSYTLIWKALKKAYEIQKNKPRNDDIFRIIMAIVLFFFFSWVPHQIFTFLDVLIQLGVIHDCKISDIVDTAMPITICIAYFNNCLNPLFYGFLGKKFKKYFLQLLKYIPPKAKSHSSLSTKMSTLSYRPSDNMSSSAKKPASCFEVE

pEC50: −log10 of the molar value.

Holding throughout (format): cell-based
Assay [1] has as its target T1, human AT1R (Homo sapiens, UniProt P30556). The assay can be described thus: IP1 accumulation assay (IP-One Tb), human AT1R. To be noted: agonist detection, inactive = EC50 greater than 10 uM.
Assay [2] addresses T2, rat AT1aR (Rattus norvegicus, UniProt P25095). The assay can be described thus: IP1 accumulation assay (IP-One Tb), rat AT1aR. The note with it: agonist detection, inactive = EC50 greater than 10 uM.
The target in assay [3] is T2, rat AT1aR. The experiment in a line: PathHunter β-arrestin-2 recruitment assay, rat AT1aR. The note with it: PathHunter β-arrestin HEK293 cells; inactive = EC50 greater than 10 uM; read-out: rat AT1aR b-arrestin2 EC50. Here is the method: (§1) The proximal event in β-arrestin function mediated by GPCRs is recruitment to receptors following ligand binding and receptor phosphorylation by GRK's. Thus, the measure of β-arrestin recruitment was used to determine ligand efficacy for β-arrestin function.
(§2) B-arrestin-2 recruitment to the human and rat angiotensin 2 type 1 receptor (human AT1R and rat AT1aR, respectively) was measured with the PathHunter™ β-arrestin assay (DiscoveRx Corporation, Fremont Calif.). Cells, plasmid(s), and detection reagent(s) were purchased from DiscoveRx, and assays were performed per the manufacturer's instructions. Human AT1R and rat AT1aR were cloned into the pCMV-ProLink vector, verified by sequencing, and transfected into PathHunter β-arrestin HEK293 cells. Stably transfected clonal cell lines were selected with Hygromycin and G418. These clonal cell lines were used for all experiments.
(§3) For assays, 25,000 cells were seeded per well in 96-well microplates in volumes of 90 μL and allowed to grow overnight at 37° C. in 5% CO2. Peptides provided herein were dissolved in deionized water to a concentration of 1 mM. Peptides were then further diluted in assay buffer (Hank's balanced salt solution with 20 mM HEPES) to add peptide to the cells to reach final concentrations ranging from 10 μM to 1 pM. Cells were then incubated for 60 minutes at 37° C. in 5% CO2, followed by the addition of 50 μL of PathHunter Detection Reagent to each well. The microplates were then incubated at room temperature for 60 minutes, and then luminescence was measured using a NOVOstar microplate reader purchased from BMG Labtech. B-arrestin-2 recruitment to receptors was measured as relative luminescence intensity expressed in arbitrary units.
(Recruitment of arrestin is a read-out of receptor activation apart from second messengers.)

In assay [4] the target is T1, human AT1R. The experiment in a line: PathHunter β-arrestin-2 recruitment assay, human AT1R. The note with it: PathHunter β-arrestin HEK293 cells; inactive = EC50 greater than 10 uM; read-out: human AT1R b-arrestin2 EC50. Here is the method:
as §1, §2, §3

Consider `CC[C@H](C)[C@H](NC(=O)[C@@H]1CCCN1C(=O)[C@H](Cc1c[nH]cn1)NC(=O)[C@H](Cc1ccc(O)cc1)NC(=O)[C@H](Cc1ccc(O)cc1)NC(=O)[C@@H](NC(=O)[C@H](CCCNC(=N)N)NC(=O)CNC)C(C)C)C(N)=O` [SEQ ID NO: 15, Sar-Arg-Val-Tyr-Tyr-His-Pro-Ile-NH2], for which, on human AT1R [1], the pEC50 (as a rule, the negative decadic logarithm of the EC50, by convention in mol/L) is 6.60.

Turning to `CC[C@H](C)[C@H](NC(=O)[C@@H]1CCCN1C(=O)[C@H](Cc1c[nH]cn1)NC(=O)[C@H](Cc1ccc(O)cc1)NC(=O)[C@H](Cc1ccc(O)cc1)NC(=O)[C@@H](NC(=O)[C@H](CCCNC(=N)N)NC(=O)CNC)C(C)C)C(=O)O` [SEQ ID NO: 14, Sar-Arg-Val-Tyr-Tyr-His-Pro-Ile-OH], the negative logarithm of the EC50 (pEC50) was 7.49 on rat AT1aR [2] and 6.80 on human AT1R [1].

For the molecule `CC[C@H](C)[C@@H]1NC(=O)[C@H](Cc2ccc(O)cc2)NC(=O)[C@H](C(C)C)NC(=O)[C@H](CCCNC(=N)N)NC(=O)[C@@H]2CCCN2C(=O)[C@H](Cc2c[nH]cn2)NC(=O)[C@H]([C@@H](C)CC)NC(=O)[C@H](Cc2ccc(O)cc2)NC(=O)[C@H](C(C)C)NC(=O)[C@H](CCCNC(=N)N)NC(=O)[C@@H]2CCCN2C(=O)[C@H](Cc2c[nH]cn2)NC(=O)[C@H]([C@@H](C)CC)NC(=O)[C@H](Cc2ccc(O)cc2)NC(=O)[C@H](C(C)C)NC(=O)[C@H](CCCNC(=N)N)NC(=O)[C@@H]2CCCN2C(=O)[C@H](Cc2c[nH]cn2)NC1=O` [SEQ ID NO: 36], the pEC50 was 5.72 at rat AT1aR [3], 5.92 on human AT1R [4] and 7.00 on rat AT1aR [2].
